Earlier results, collected in patent publication US20220298038A1, “A METHOD FOR DISRUPTING BIOFILMS IN WASTEWATER SYSTEMS” (GRENOF PTY LTD, priority 2019, published 2022).

Columns and labels:
[1] = standard oxidation potential (at pH 7); cited from earlier work
[2] = cited from earlier work
[3] = discrete compounds (Yu Ran Luo); cited from earlier work

For Hydroxy Radical, the “Oxidation Potential” value [1] is given as 2.8 eV.
In the case of `O=C(OO)c1ccccc1`, the “solubility in cold water” value [2] is listed as “slightly soluble”.
For Potassium Permanganate, the “Oxidation Potential” value [1] is listed as 1.68 eV.
For dimethyl peroxide, the “O—O Bond Dissociation Energy” value [3] is given as 37.6 ± 2.01 kcal/mol.
